Experimental data published in publication PMC7394244 (Journal of medicinal chemistry, 2020).
“And” between values parts separate entries of the source, which are not always exact repeats. Identical values can stand only once. Like-named read-outs stand apart in the source and are kept apart here. Marks after values point to notes of the source that are not given here.

Columns and labels:
P. falciparum 3D70087/N9 [1] = settings: SCID mouse, cited from earlier work
P. falciparum 3D70087/N9 [2] = settings: SCID mouse

Row | Compound | Blood AUCED90 (P. falciparum 3D70087/N9 [1]; BID) | ED90 (P. falciparum 3D70087/N9 [1]; BID) | Blood AUCED90 (P. falciparum 3D70087/N9 [1]; QD) | ED90 (P. falciparum 3D70087/N9 [1]; QD) | Unbound blood AUC (P. falciparum 3D70087/N9 [1]; QD) | tolerability (P. falciparum 3D70087/N9 [2]; 50 mg/kg oral QD x4, both studies) | Blood AUCED90 (P. falciparum 3D70087/N9 [2]; QD) | ED90 (P. falciparum 3D70087/N9 [2]; QD, 4 days oral, average of two studies)
1 | Cc1cc(Nc2ccc(S(F)(F)(F)(F)F)cc2)n2nc(C(C)(F)F)nc2n1 [Compound 1] | 10.8 µg·h/mL | 3.0 (BID) mg/kg/day | 16.7 µg·h/mL | ~ 8 mg/kg/day and 8.1 (QD) mg/kg/day | 0.023 µg·h/mL | – | – | –
2 | Cc1c(Cc2ccc(C(F)(F)F)nc2)c[nH]c1C(=O)NC1CC1 [Compound 37] | – | – | – | – | – | well tolerated | ~9 µg·h/mL | ~50 ^* (QD) mg/kg/day
3 | Cc1cc(Nc2ccc(C(F)(F)F)nc2)n2nc(C(C)(F)F)nc2n1 [DSM421, 2-(1,1-difluoroethyl)-5-methyl-N-(6-(trifluoromethyl)pyridin-3-yl)-[1,2,4]triazolo[1,5-a]pyrimidin-7-amine] | – | – | – | 2.6 (QD) mg/kg/day | – | – | – | –
